# Screens from PubChem BioAssay.
# A selection: hits, their analogues and other compounds. The true share with any hit is near 2.1%.
# UUG fidelity – modulators of yeast start codon fidelity, primary screen, whole organism, S. cerevisiae, single point, plate reader. S. cerevisiae UUG-firefly luciferase reporter, luminescence/redox ratio. activity score, % at 18.7 µM. 350,000 tested, 0.13% active;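 active = replicate mean at a twofold rise or more, about +100% in these data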;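 also: firefly luciferase made from a UUG start codon reports start codon fidelity; reporter light over untreated wells divided by growth signal over untreated wells; some hits fall short of that in this replicate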
# INS-1E GSIS act – GLuc luminescence reporter in INS-1E cells, primary screen for activators of glucose-dependent secretion of insulin | activation, % at 16.6 µM | actives 0.61% (n = 370,000) | INS-1E GLuc reporter insulin secretion, 2-3 h | AID 743287;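 active means lowest replicate activation of at least 40%, so every replicate reaches that level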;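 further: 0% = median of neutral control wells and 100% = median of IBMX positive control wells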
# ERp5 inh – blocks human ERp5 reductase activity on insulin; Q15084; ERp5 insulin aggregation, absorbance 650 nm, 90 min; inhibition, % at 9.99 µM; actives 0.05% (n = 350,000); AID 651711;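 active means mean replicate inhibition above about 25%, with every replicate also reaching it, limit read from the data, passing the limit was not always enough; inconclusive means only one of those two criteria met; inactive means neither criterion met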
# SMARCA2 act – increases SMARCA2 function in MMTV reporter cells; activation, % at 9.1 µM; AID 652017; MG213 cells, MMTV-luciferase reporter, dexamethasone, overnight; actives 1% (n = 370,000); in the data active means activation above about 7.8%;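 further: 0% = vehicle wells and 100% = reference activator wells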
# PDI turbidity – PDI (human) enzyme inhibition; P07237; PDI insulin aggregation turbidity, A650, 90 min; inhibition, % at 10 µM; actives 0.052% (n = 350,000); AID 588391;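 active means mean inhibition across replicates of 30% or more, whatever share of single replicates reach that level; inconclusive means mean inhibition below 30% while every single replicate reaches 30%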
# NR1D1 modulator – modulators of human Rev-erb alpha DNA binding | P20393 | Rev-erbα–FITC-DNA binding, fluorescence polarization, 90 min | activity, % at 10 µM | actives 0.79% (n = 370,000) | AID 1259318;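 active means activity above about 14%, limit read from the data; passing the limit was not always enough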;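 further: 0% = DMSO wells with 35 nM protein and 100% = DMSO wells with 750 nM protein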
# SMARCA2 conf – SMARCA2 activation, confirmation screen; shares compounds with SMARCA2 act; MG213 cells, MMTV-luciferase with dexamethasone, luminescence, overnight; MG213 cells expressing E1A, Rb sequestered; DMSO wells 0%, reference activator 100%; activation, % at 9.1 µM; actives 30% (n = 3,500); AID 652260;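 active means activation above its plate's cutoff, the mean activation of tested wells plus 3 SD, cut at about 7.9% in these data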
# GAL4-VP16 Luc – activates GAL4-VP16 luciferase, flagging SMARCA2 activator hits | AID 686939 | actives 41% (n = 3,500) | HEK293 GAL4-VP16 pG5luc reporter, luciferase luminescence; scaled: DMSO wells 0%, SAHA wells 100% | shares compounds with SMARCA2 act | activation, % at 9.1 µM;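 active means activation above the solvent-only control well mean plus 3 SD, averaged across control plates, cut at about 5.2% in these data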
# Numbers without * were called inactive; u = inconclusive; x = not tested or not shown.
# The first 2 records, ahead of the listing:
no. | GAL4-VP16 Luc | UUG fidelity | NR1D1 modulator | canonical_smiles | SMARCA2 conf | SMARCA2 act | PDI turbidity | INS-1E GSIS act | ERp5 inh
1 | 7.7* | -2.1 | 1.2 | CCN(/C=N/c1sc2c(c1C#N)CCCCC2)CC | 8.7* | 8.0* | u | x | x
2 | x | 2.8 | x | C[C@H](CO)N1C[C@H](C)[C@@H](CN(C)C(=O)c2cccc(F)c2)Oc2ncc(-c3ccncc3)cc2C1=O | x | x | x | -11.7 | -5.1

# Results, repeating the preview:
no. | GAL4-VP16 Luc | UUG fidelity | NR1D1 modulator | canonical_smiles | SMARCA2 conf | SMARCA2 act | PDI turbidity | INS-1E GSIS act | ERp5 inh
1 | 7.7* | -2.1 | 1.2 | CCN(/C=N/c1sc2c(c1C#N)CCCCC2)CC | 8.7* | 8.0* | u | x | x
2 | x | 2.8 | x | C[C@H](CO)N1C[C@H](C)[C@@H](CN(C)C(=O)c2cccc(F)c2)Oc2ncc(-c3ccncc3)cc2C1=O | x | x | x | -11.7 | -5.1
3 | 7.1* | -19.1 | -6.0 | COc1nc(C)ccc1-c1noc(-c2cccnc2)n1 | 4.5 | 10.9* | -4.3 | 29.4 | 0.3
4 | 12.9* | -54.9 | 3.2 | CCOc1ccc(-c2nc(-c3cccnc3)no2)cc1 | 2.5 | 9.3* | -5.5 | x | x
5 | x | -1.9 | x | CC(C)NC(=O)N(C)C[C@H]1Oc2cc(C#CC(C)(C)O)ccc2S(=O)(=O)N([C@@H](C)CO)C[C@H]1C | x | x | x | -8.4 | -1.8
6 | x | x | x | O=C(Cc1cccnc1)N1CC[C@H]2[C@H](CO)Nc3ccc(C#Cc4cccc(F)c4)cc3[C@H]21 | x | x | x | -8.1 | 3.2
7 | 0.2 | 4.0 | -4.7 | CCCN(CCC)C(=O)C1CCCN(S(=O)(=O)c2ccc3c(c2)oc(=O)n3C)C1 (stereo not drawn) | 1.8 | 10.3* | 4.7 | 5.2 | 3.7
8 | x | -32.0 | 0.8 | COc1ccc(OCCSc2ncccn2)cc1 | x | 6.8 | -0.9 | x | x
9 | 5.5* | x | 1.1 | Clc1ccc(OCCSc2ncccn2)cc1 | 7.3 | 8.0* | -2.6 | x | x
10 | 2.6 | x | -3.3 | CC(=O)Nc1nnc(COc2ccccc2)s1 | 3.5 | 8.4* | 2.2 | 1.7 | 0.9
11 | 1.4 | -14.5 | -5.4 | CC(=O)Nc1nnc(Cc2ccccc2)s1 | 2.3 | 12.8* | 2.1 | x | x
12 | x | 27.9 | 3.5 | COc1ccc(Cc2nnc(NC(=O)c3cccc([N+](=O)[O-])c3C)s2)cc1 | x | -0.3 | 3.0 | x | x
13 | x | -1.8 | -5.5 | COC(=O)C(=O)Nc1nnc(COc2ccccc2)s1 | x | -2.0 | 6.4 | x | x
14 | 0.4 | -16.6 | 6.5 | COc1ccc(Cc2nnc(NC(=O)c3ccccc3[N+](=O)[O-])s2)cc1 | 2.2 | 8.4* | 1.7 | 41.8 | 0.7
15 | x | -15.7 | 3.5 | COc1cc(OC)cc(-c2nnc(SCc3cccnc3)o2)c1 | x | 1.8 | -10.1 | -0.1 | 2.2

# An excerpt of these results, with two lines to a compound:
# The line under a structure holds: GAL4-VP16 Luc, UUG fidelity, NR1D1 modulator, SMARCA2 conf, SMARCA2 act, PDI turbidity, INS-1E GSIS act, ERp5 inh
9. Clc1ccc(OCCSc2ncccn2)cc1
    5.5*, x, 1.1, 7.3, 8.0*, -2.6, x, x
10. CC(=O)Nc1nnc(COc2ccccc2)s1
    2.6, x, -3.3, 3.5, 8.4*, 2.2, 1.7, 0.9

# (continued)
no. | GAL4-VP16 Luc | UUG fidelity | NR1D1 modulator | canonical_smiles | SMARCA2 conf | SMARCA2 act | PDI turbidity | INS-1E GSIS act | ERp5 inh
16 | 6.6* | -5.0 | -3.0 | COc1cccc(-c2nnc(SCc3cccnc3)o2)c1 | 6.3 | 10.1* | 1.9 | x | x
17 | x | 0.9 | x | O=C(C[C@H]1CC[C@@H](NC(=O)CCN2CCCCC2)[C@@H](CO)O1)NCc1ccc(Cl)c(Cl)c1 | x | x | x | -1.6 | 1.0
18 | x | -10.0 | 2.0 | CCOc1ccc(C(=O)NCC(=O)N2CCC3(CC2)NCCc2[nH]cnc23)cc1 | x | 0.9 | 3.5 | 32.5 | -1.5
19 | 1.5 | -13.6 | -4.7 | O=C(COc1ccc(Cl)cc1)NCC(=O)N1CCC2(CC1)NCCc1[nH]cnc12 | 2.5 | 9.7* | 1.7 | 18.6 | 6.5
20 | -1.2 | -21.8 | 2.9 | CCCn1c(CC)nc([N+](=O)[O-])c1S(=O)(=O)c1ccccc1 | -12.5 | 10.4* | 2.8 | x | x
21 | x | -5.9 | x | CN1C(=O)c2cc(NC(=O)c3cc(F)cc(F)c3)ccc2OC[C@@H]2O[C@@H](CC(=O)O)CC[C@@H]21 | x | x | x | -3.4 | -5.2
22 | 11.1* | -64.3 | 1.8 | Cc1cc(/C(N)=N/OC(=O)c2ccccc2Cl)no1 | 12.2* | 8.6* | 1.0 | x | 4.4
23 | x | -15.6 | x | O=C(C[C@@H]1CC[C@@H](NC(=O)Nc2ccc3c(c2)OCO3)[C@H](CO)O1)NCc1ccc(F)cc1 | x | x | x | -2.0 | -3.4
24 | x | 0.8 | 4.7 | COCCCNC1=C(Cl)C(=O)c2ccccc2C1=O | x | 0.9 | -1.3 | -3.2 | 5.1
25 | 2.5 | -3.9 | 8.0 | CC(C)OCCCNC1=C(Cl)C(=O)c2ccccc2C1=O | 5.6 | 9.4* | -4.8 | -14.9 | 3.2
26 | x | x | x | CC(=O)Nc1cccc2c1O[C@@H](CN(C)C(=O)NC(C)C)[C@@H](C)CN(C)C2=O | x | x | x | -1.8 | x
27 | 1.0 | -3.3 | -9.1 | CCCS(=O)(=O)NC(=O)C1(C)CCN(C(=O)c2nc(C)oc2C)C1 (stereo not drawn) | 0.1 | 8.0* | -7.8 | -11.7 | -3.5
